Entries after “also recorded” stand apart in the source; their conditions may differ. Read-outs that look alike come from different tables or passages of the source.

This data set is classed as in vivo, human. The conditions noted are these: with vs without concomitant clarithromycin.

Regarding `COc1ccc(-n2nc(C(N)=O)c3c2C(=O)N(c2ccc(N4CCCCC4=O)cc2)CC3)cc1` [Apixaban], the “change in tmax and half-life of apixaban” value is listed as “unchanged”. Also, the “change in tmax and half-life of apixaban” value (listed as apixaban) was “comparable; also recorded: no change; also recorded: little to no impact”.

Source of the values: paper PMC6885504 (American Journal of Cardiovascular Drugs, 2019).
